In article PMC5826244 (OncoTargets and therapy, 2018):

Biological target: T1, LH-RH-I receptors, membranes of human UM models (Homo sapiens, UniProt P30968)
T1 sequence (P30968 1-328): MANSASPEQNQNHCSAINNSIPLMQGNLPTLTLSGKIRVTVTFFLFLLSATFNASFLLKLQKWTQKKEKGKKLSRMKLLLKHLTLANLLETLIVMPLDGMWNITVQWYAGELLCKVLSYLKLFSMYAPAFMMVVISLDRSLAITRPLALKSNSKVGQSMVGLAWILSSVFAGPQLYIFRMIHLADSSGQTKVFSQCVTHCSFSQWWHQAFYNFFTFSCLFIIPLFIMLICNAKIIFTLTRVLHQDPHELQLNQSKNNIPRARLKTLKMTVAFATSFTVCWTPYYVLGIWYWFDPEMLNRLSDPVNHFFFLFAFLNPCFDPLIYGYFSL
Test: Radioligand binding / ligand competition, human UM samples
Settings: increasing concentrations 10^−12–10^−6 M; data not shown

cetrorelix
displacement of radiolabeled [D-Trp6]LH-RH binding: completely displaced
